# Laboratory results taken from patent US8487091B2, “Substituted cyclopentanes having prostaglandin activity” (Allergan, Inc., priority 2008, dated 2013).
# Amino acid sequences for entries named in this document (tags omitted).
# UniProt P43116, whole entry: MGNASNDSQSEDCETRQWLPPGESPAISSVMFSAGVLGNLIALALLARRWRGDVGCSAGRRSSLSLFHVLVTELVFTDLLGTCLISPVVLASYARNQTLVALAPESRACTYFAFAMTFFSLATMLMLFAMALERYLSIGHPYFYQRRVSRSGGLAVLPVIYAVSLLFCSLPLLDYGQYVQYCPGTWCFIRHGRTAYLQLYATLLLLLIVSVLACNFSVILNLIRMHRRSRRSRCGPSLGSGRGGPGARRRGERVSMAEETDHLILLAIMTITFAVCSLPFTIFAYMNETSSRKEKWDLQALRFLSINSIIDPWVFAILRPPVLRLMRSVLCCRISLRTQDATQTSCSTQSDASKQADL
# Assays:
# [1] = target: T1, EP2 (Homo sapiens, UniProt P43116); test: EP2 cAMP functional assay; conditions: read-out: EP2 cAMP EC50
# Excerpt: (§1) United States Patent Application Publication No. 20070129552, describes the methods used to obtain the in vitro data in Table 1 below. The part of that reference which describes the method is incorporated by reference herein.
# [2] = target: T1, EP2; test: EP2 binding assay; conditions: read-out: EP2 Binding Ki
# Excerpt: as §1
smiles,measurement,setting,value
CCC1(C(O)C/C=C/[C@@H]2[C@@H](CCCc3ccc(C(=O)O)s3)CC[C@H]2C#N)CCC1 (some centres unmarked),EC50,[1],2.5 nM
same,Ki,[2],32 nM
